We go through 1 compound from US6835714B1, “Heterocyclic compounds, intermediates thereof and elastase inhibitors” (Dainippon Pharmaceutical Co., Ltd., priority 1999, dated 2004).

The target of this assay is T1, Human neutrophilic elastase (Homo sapiens, UniProt P08246).
T1 construct: purchased Sigma
T1 sequence (P08246 30-267): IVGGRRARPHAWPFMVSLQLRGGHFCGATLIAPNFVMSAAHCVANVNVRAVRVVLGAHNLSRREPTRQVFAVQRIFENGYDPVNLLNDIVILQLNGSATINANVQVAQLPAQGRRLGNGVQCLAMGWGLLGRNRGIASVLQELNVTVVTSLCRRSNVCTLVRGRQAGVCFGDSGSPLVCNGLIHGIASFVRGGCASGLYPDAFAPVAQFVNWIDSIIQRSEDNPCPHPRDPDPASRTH
As to the kind of experiment: Human neutrophilic elastase inhibitory activity in vitro (fluorogenic substrate). The assay is classed as biochemical. The note with it: 37° C., pH 7.5.

As to `CC(C)(C)C(=O)Oc1ccc(S(=O)(=O)Nc2ccccc2C(=O)NCC(=O)O)cc1` [Control (a), reference compound], the midpoint of inhibition, the IC50, lay at 17 nM.
